Source: patent US5132429A, “Benzotriazole derivatives and fluorescence-emitting reagents thereof” (priority 1988, dated 1992)

Biological target: α1-AG (α1-acid glycoprotein)
Assay: Binding constant of basic drug to α1-AG by displacement of compound 1 (fluorescence probe method, Klotz formula)
Conditions: 3×10^-6 M α1-AG
Description: Two different kinds of solutions, one containing α1 -AG and a compound of this invention listed above, the other containing α1 -AG, the compound of this invention, and a drug, are prepared to measure fluorescence intensity at the excitation. fluorescence wavelength, as shown in Table 2. According to the working curve made beforehand, the binding rate of the compound to α1 -AG in each solution is determined and the binding constant of a drug to α1-AG is calculated from the difference between the binding rates in the presence and the absence of a drug.
In the fluorescence cell made of quartz with a plug was placed the buffer solution of 0.1M phosphoric acid (2 ml) which pH is 7.4 and containig 1×10^-4 M α1 -AG, to which 5×10^-4 M aqueous solution of the compound 1 was added by 2 μl each with a microcylinder, which was prepared by dissolving about 3 mg of the compound 1 in 1N hydrochloric acid (1 ml), followed by diluting with water to make the total volume 200 times, and the resulting solution was mixed fully to determine fluorescence intensity at 508 nm (excitation wavelength: 418 nm).
For the buffer solution of 0.1M phosphoric acid (2 ml) which pH is 7.4 and containing 3×10^-6 M α1 -AG, the same procedure as in Example 1 was performed.
As for the other basic drugs shown in Table 3, binding constant were obtained according to the same manner as in Example 11.

CN(C)CCCN1c2ccccc2Sc2ccc(Cl)cc21 [Chloropromazine]
log Kb (binding constant) (0.1M phosphoric acid buffer pH 7.4, compound 1 as probe): 6.46
inhibition of the binding of the compound 1 to α1-AG (1×10^-6 M chloropromazine, pH 7.4): inhibited
